Experimental data as given in patent US20240279249A1, “Compound, Coating Composition Comprising Same, Organic Light-Emitting Device Using Same, and Manufacturing Method Therefor” (LG Chem, Ltd., priority 2021, published 2024).

Test: Solubility at 5 wt % relative to each solvent
Details: 5 wt % relative to solvent
Excerpt: In a solution process organic light emitting device, when an ink solvent is selected for the process, the ink solvent needs to dissolve both a host and a dopant.

(4-isopropylphenyl) (p-tolyl)iodonium (2,3,5,6-tetrafluoro-4′-vinyl-[1,1′-biphenyl]-4-yl)tris(2,3,5,6-tetrafluoro-4-(trifluoromethyl)phenyl)borate [Compound 1]
Dissolved: Solubility in Acetone | Solubility in Dichloromethane | Solubility in Toluene

(4-isopropylphenyl) (p-tolyl)iodonium (2,2′,3,3′,5,5′,6,6′-octafluoro-4″-vinyl-[1,1′:4′,1″-terphenyl]-4-yl)tris(2,3,5,6-tetrafluoro-4-(trifluoromethyl)phenyl)borate [Compound 2]
Dissolved: Solubility in Acetone | Solubility in Dichloromethane | Solubility in Toluene
